Source: patent publication US20200317769A1 (published 2020)

Chains of the proteins cited; added tags and fusions are not shown.
UniProt P01375, whole entry: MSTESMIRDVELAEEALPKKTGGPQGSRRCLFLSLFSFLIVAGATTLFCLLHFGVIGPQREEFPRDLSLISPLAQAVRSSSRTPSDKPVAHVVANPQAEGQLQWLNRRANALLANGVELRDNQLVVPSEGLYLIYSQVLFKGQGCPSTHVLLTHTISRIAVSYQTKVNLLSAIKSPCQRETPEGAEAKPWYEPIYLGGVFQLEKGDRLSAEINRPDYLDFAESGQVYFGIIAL

Biological target: non-cleavable transmembrane form of human TNF-alpha on CHO cells (mTNF-alpha-CHO) (human, UniProt P01375 1-233)
Test: cell-based or functional assay

mTNF-alpha neutralisation EC50 (nM), NF-kB/SEAP HEK-293 cellular reporter assay: 3.79 nM
B1: infliximab (antibody, V domains shown)
VH: EVKLEESGGGLVQPGGSMKLSCVASGFIFSNHWMNWVRQSPEKGLEWVAEIRSKSINSATHYAESVKGRFTISRDDSKSAVYLQMTDLRTEDTGVYYCSRNYYGSTYDYWGQGTTLTVSS
VL: DILLTQSPAILSVSPGERVSFSCRASQFVGSSIHWYQQRTNGSPRLLIKYASESMSGIPSRFSGSGSGTDFTLSINTVESEDIADYYCQQSHSWPFTFGSGTNLEVKR
